CycPeptMPDB entries from one study

PAMPA measures passive passage through an artificial lipid membrane.
Caco-2: transport across a human colon carcinoma cell monolayer.
Values are log10 P with P in cm/s, so -5 is more permeable than -7.

CCCC[C@@H]1NC(=O)[C@H](CC(C)C)N(C)C(=O)CN(CCc2cccnc2)C(=O)[C@H](Cc2ccccc2)NC(=O)CN(CCCOC(C)C)C(=O)[C@H]2CCCN2C1=O is reported with PAMPA -5.51 (log10 cm/s) and Caco-2 -5.89 (log10 cm/s).
CCCC[C@@H]1NC(=O)[C@H](CC(C)C)N(C)C(=O)CN(CCCc2ccccc2)C(=O)[C@H](C)NC(=O)CN(CCCOC(C)C)C(=O)[C@H]2CCCN2C1=O is reported with PAMPA -4.88 (log10 cm/s).
CCCCCN1CC(=O)N(C)[C@@H](CC(C)C)C(=O)N[C@@H](CCCC)C(=O)N2CCC[C@@H]2C(=O)N(CCCCc2ccccc2)CC(=O)N[C@@H](Cc2ccccc2)C1=O is reported with PAMPA -8.51 (log10 cm/s).
CCCC[C@@H]1NC(=O)[C@H](CC(C)C)N(C)C(=O)CN(Cc2ccccc2)C(=O)[C@H](Cc2ccccc2)NC(=O)CN(Cc2cc(CC(C)C)on2)C(=O)[C@H]2CCCN2C1=O is reported with PAMPA -6.97 (log10 cm/s).
CCCC[C@@H]1NC(=O)[C@H](CC(C)C)N(C)C(=O)CN(CCCc2cnn(C)c2)C(=O)[C@H](CC(C)C)NC(=O)CN(Cc2ccccc2Cn2cccn2)C(=O)[C@H]2CCCN2C1=O is reported with PAMPA -5.74 (log10 cm/s).
CCCC[C@@H]1NC(=O)[C@H](CC(C)C)N(C)C(=O)CN(CCOc2ccccc2)C(=O)[C@H](CC(C)C)NC(=O)CN(CC)C(=O)[C@H]2CCCN2C1=O is reported with PAMPA -5.19 (log10 cm/s).
CCCC[C@@H]1NC(=O)[C@H](CC(C)C)N(C)C(=O)CN(CCOC)C(=O)[C@H](Cc2ccccc2)NC(=O)CN(CCCOC(C)C)C(=O)[C@H]2CCCN2C1=O is reported with PAMPA -5.08 (log10 cm/s).
CCCC[C@@H]1NC(=O)[C@H](CC(C)C)N(C)C(=O)CN(CC2CCOCC2)C(=O)[C@H](Cc2ccc3ccccc3c2)NC(=O)CN(CC)C(=O)[C@H]2CCCN2C1=O is reported with PAMPA -5.23 (log10 cm/s).
CCCC[C@@H]1NC(=O)[C@H](CC(C)C)N(C)C(=O)CN(CCOc2ccccc2)C(=O)[C@H](Cc2ccccc2)NC(=O)CN(CC)C(=O)[C@H]2CCCN2C1=O is reported with PAMPA -5.47 (log10 cm/s).
CCCC[C@@H]1NC(=O)[C@H](CC(C)C)N(C)C(=O)CN(CC2CCCCC2)C(=O)[C@H](Cc2ccc3ccccc3c2)NC(=O)CN(Cc2ccc3c(c2)OCO3)C(=O)[C@H]2CCCN2C1=O is reported with PAMPA -9.12 (log10 cm/s).
CCCC[C@@H]1NC(=O)[C@H](CC(C)C)N(C)C(=O)CN(CCCN2CCCC2=O)C(=O)[C@H](Cc2ccc3ccccc3c2)NC(=O)CN(Cc2ccc(Cl)cc2)C(=O)[C@H]2CCCN2C1=O is reported with PAMPA -7.11 (log10 cm/s).
CCCC[C@@H]1NC(=O)[C@H](CC(C)C)N(C)C(=O)CN(CCc2cccnc2)C(=O)[C@H](Cc2ccccc2)NC(=O)CN(Cc2cc(CC(C)C)on2)C(=O)[C@H]2CCCN2C1=O is reported with PAMPA -5.57 (log10 cm/s).
CCCC[C@@H]1NC(=O)[C@H](CC(C)C)N(C)C(=O)CN(CCCc2cnn(C)c2)C(=O)[C@H](Cc2ccc3ccccc3c2)NC(=O)CN(CCN2CCOCC2)C(=O)[C@H]2CCCN2C1=O is reported with PAMPA -6.05 (log10 cm/s).
CCCC[C@@H]1NC(=O)[C@H](CC(C)C)N(C)C(=O)CN(CCc2cccnc2)C(=O)[C@H](Cc2ccc3ccccc3c2)NC(=O)CN(CCCOC(C)C)C(=O)[C@H]2CCCN2C1=O is reported with PAMPA -5.32 (log10 cm/s).
CCCC[C@@H]1NC(=O)[C@H](CC(C)C)N(C)C(=O)CN(CCCc2cnn(C)c2)C(=O)[C@H](Cc2ccccc2)NC(=O)CN(CCN2CCOCC2)C(=O)[C@H]2CCCN2C1=O is reported with PAMPA -6.63 (log10 cm/s).
CCCC[C@@H]1NC(=O)[C@H](CC(C)C)N(C)C(=O)CN(CCOc2ccccc2)C(=O)[C@H](Cc2ccccc2)NC(=O)CN(Cc2ccccc2Cn2cccn2)C(=O)[C@H]2CCCN2C1=O is reported with PAMPA -6.79 (log10 cm/s).
CCCC[C@@H]1NC(=O)[C@H](CC(C)C)N(C)C(=O)CN(CCCN2CCCC2=O)C(=O)[C@H](C)NC(=O)CN(CCCCc2ccccc2)C(=O)[C@H]2CCCN2C1=O is reported with PAMPA -6.22 (log10 cm/s).
CCCC[C@@H]1NC(=O)[C@H](CC(C)C)N(C)C(=O)CN(CCOC)C(=O)[C@H](Cc2ccc3ccccc3c2)NC(=O)CN(Cc2ccc3c(c2)OCO3)C(=O)[C@H]2CCCN2C1=O is reported with PAMPA -7.13 (log10 cm/s).
CCCC[C@@H]1NC(=O)[C@H](CC(C)C)N(C)C(=O)CN(CCCc2cnn(C)c2)C(=O)[C@H](CC(C)C)NC(=O)CN(CCCCc2ccccc2)C(=O)[C@H]2CCCN2C1=O is reported with PAMPA -5.83 (log10 cm/s).
CCCC[C@@H]1NC(=O)[C@H](CC(C)C)N(C)C(=O)CN(CC2CCCCC2)C(=O)[C@H](CC(C)C)NC(=O)CN(Cc2ccc(Cl)cc2)C(=O)[C@H]2CCCN2C1=O is reported with PAMPA -7.10 (log10 cm/s).
CCCC[C@@H]1NC(=O)[C@H](CC(C)C)N(C)C(=O)CN(CC2CCOCC2)C(=O)[C@H](CC(C)C)NC(=O)CN(Cc2ccc3c(c2)OCO3)C(=O)[C@H]2CCCN2C1=O is reported with PAMPA -5.02 (log10 cm/s).

The last 2 entries again:

{"smiles": "CCCC[C@@H]1NC(=O)[C@H](CC(C)C)N(C)C(=O)CN(CC2CCCCC2)C(=O)[C@H](CC(C)C)NC(=O)CN(Cc2ccc(Cl)cc2)C(=O)[C@H]2CCCN2C1=O", "PAMPA (log10 cm/s)": "-7.10"}
{"smiles": "CCCC[C@@H]1NC(=O)[C@H](CC(C)C)N(C)C(=O)CN(CC2CCOCC2)C(=O)[C@H](CC(C)C)NC(=O)CN(Cc2ccc3c(c2)OCO3)C(=O)[C@H]2CCCN2C1=O", "PAMPA (log10 cm/s)": "-5.02"}

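Lipid, pH, incubation time, direction and concentration are not recorded in the data file. The list need not hold all peptides of the study. Entries at the database's floor value (log10 P of -10) are not listed.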

Data: CycPeptMPDB; original report Furukawa et al. 2016, doi:10.1021/acs.jmedchem.6b01246.